{"sequences": {"note": "The chains behind the UniProt entries cited, without tags or fusion partners. Where a name states a change or a piece, a line headed by the entry shows the natural chain unless it says otherwise.", "UniProt P49841": "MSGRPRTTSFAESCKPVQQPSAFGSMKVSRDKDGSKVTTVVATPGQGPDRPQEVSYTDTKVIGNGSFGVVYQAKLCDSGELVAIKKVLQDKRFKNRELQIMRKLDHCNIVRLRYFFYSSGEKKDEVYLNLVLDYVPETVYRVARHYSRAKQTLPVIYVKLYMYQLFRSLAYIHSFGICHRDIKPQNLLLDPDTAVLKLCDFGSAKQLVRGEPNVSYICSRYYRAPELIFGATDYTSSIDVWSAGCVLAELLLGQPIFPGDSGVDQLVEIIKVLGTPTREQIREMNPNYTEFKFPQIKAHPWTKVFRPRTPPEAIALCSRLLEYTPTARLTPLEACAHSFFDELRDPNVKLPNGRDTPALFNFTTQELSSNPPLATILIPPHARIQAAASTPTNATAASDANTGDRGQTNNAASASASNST"}, "source": "patent US20080139620A1", "about": "“Pyrazole Derivatives For The Inhibition Of Cdk's And Gsk's” (ASTEX THERAPEUTICS LIMITED, priority 2005, published 2008)", "biological_target": "T1, GSK3-β (Homo sapiens, UniProt P49841)", "T1 construct": "purchased Upstate Discovery", "experiment": "GSK3-B kinase inhibitory activity assay", "type": "biochemical", "conditions": "read-out: GSK3β IC50", "experimental": "GSK3-β (Upstate Discovery) are diluted to 7.5 nM in 25 mM MOPS, pH 7.00, 25 mg/ml BSA, 0.0025% Brij-35, 1.25% glycerol, 0.5 mM EDTA, 25 mM MgCl2, 0.025% β-mercaptoethanol, 37.5 mM ATP and 10 μl mixed with 10 μl of substrate mix. The substrate mix for GSK3-β is 12.5 μM phospho-glycogen synthase peptide-2 (Upstate Discovery) in 1 ml of water with 35 μCi γ^33P-ATP. Enzyme and substrate are added to 96 well plates along with 5 μl of various dilutions of the test compound in DMSO (up to 2.5%). The reaction is allowed to proceed for 3 hours (GSK3-β) before being stopped with an excess of ortho-phosphoric acid (5 μl at 2%). The filtration procedure is as for Activated CDK2/CyclinA assay above.", "data": [{"smiles": "CS(=O)(=O)N1CCC(NC(=O)c2n[nH]cc2NC(=O)c2c(Cl)cccc2Cl)CC1", "note": "[Example 1, 4-(2,6-dichloro-benzoylamino)-1H-pyrazole-3-carboxylic acid (1-methanesulphonyl-piperidin-4-yl)-amide]", "values": [{"measurement": "IC50", "result": 0.22, "unit": "µM"}]}]}
